Measured values taken from PubChem BioAssay (NCATS).
This is a selection; strong and weak results do not stand in their true shares. Inconclusive results are not listed. Activity calls are given as the source filed them. Unless noted, calls follow the shape of the dose curve; as a rule, active = well fitted curve in the direction sought with a large enough effect; inconclusive = small, poorly fitted or top-dose-only effect, or another doubt; inactive = no such curve, though single readings can be large; an effect the other way counts as inactive or inconclusive.

Sequences of proteins named here, by UniProt entry; tags and fusion partners are left off. A change or cut given only in a name is not applied to a line headed by its entry.
UniProt P20594: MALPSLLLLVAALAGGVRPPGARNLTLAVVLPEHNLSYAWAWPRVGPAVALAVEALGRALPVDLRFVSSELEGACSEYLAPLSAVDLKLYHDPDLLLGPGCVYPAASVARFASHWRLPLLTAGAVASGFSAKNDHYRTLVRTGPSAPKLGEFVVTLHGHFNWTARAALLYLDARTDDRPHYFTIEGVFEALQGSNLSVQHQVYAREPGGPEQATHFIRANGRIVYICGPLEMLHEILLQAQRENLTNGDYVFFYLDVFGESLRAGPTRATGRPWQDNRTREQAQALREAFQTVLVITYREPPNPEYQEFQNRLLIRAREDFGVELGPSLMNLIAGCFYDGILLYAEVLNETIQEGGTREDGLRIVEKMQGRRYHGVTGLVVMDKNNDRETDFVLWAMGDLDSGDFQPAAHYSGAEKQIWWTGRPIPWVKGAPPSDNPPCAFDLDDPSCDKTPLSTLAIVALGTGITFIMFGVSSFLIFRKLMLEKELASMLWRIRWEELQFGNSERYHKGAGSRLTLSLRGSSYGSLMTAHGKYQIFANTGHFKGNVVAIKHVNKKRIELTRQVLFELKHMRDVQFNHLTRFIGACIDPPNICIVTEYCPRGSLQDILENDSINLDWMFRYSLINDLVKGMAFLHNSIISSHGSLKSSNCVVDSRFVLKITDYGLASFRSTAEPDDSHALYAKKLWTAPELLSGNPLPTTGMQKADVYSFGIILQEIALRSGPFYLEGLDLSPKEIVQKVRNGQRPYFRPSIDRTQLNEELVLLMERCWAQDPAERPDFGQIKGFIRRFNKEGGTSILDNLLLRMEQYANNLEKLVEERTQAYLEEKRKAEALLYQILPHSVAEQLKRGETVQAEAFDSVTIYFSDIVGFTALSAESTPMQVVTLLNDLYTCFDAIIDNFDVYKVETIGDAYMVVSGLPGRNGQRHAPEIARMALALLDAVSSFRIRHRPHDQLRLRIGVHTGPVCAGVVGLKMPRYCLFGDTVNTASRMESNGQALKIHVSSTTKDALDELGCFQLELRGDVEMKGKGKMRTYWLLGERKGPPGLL
UniProt P78324, whole entry, looked up: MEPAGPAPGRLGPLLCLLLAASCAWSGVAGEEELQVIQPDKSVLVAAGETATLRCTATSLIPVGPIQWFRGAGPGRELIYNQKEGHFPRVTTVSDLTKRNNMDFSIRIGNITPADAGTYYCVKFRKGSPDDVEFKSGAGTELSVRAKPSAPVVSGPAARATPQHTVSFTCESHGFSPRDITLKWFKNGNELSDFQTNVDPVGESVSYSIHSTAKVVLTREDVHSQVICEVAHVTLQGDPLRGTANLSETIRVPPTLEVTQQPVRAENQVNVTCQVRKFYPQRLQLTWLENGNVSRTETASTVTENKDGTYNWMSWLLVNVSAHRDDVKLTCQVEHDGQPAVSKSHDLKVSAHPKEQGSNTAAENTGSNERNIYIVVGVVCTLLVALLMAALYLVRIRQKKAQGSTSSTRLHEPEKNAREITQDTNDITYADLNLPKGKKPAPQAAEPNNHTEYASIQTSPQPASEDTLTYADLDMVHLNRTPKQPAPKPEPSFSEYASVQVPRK
UniProt Q08722, whole entry, looked up: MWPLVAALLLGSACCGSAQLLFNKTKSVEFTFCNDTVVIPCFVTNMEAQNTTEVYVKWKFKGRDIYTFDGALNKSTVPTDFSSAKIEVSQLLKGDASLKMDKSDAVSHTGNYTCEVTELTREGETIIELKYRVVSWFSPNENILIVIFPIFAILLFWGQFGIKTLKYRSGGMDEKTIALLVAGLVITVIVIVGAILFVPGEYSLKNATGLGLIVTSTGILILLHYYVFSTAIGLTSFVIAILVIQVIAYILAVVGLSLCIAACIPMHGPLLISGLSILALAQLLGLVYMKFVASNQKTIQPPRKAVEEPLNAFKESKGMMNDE
UniProt Q03431: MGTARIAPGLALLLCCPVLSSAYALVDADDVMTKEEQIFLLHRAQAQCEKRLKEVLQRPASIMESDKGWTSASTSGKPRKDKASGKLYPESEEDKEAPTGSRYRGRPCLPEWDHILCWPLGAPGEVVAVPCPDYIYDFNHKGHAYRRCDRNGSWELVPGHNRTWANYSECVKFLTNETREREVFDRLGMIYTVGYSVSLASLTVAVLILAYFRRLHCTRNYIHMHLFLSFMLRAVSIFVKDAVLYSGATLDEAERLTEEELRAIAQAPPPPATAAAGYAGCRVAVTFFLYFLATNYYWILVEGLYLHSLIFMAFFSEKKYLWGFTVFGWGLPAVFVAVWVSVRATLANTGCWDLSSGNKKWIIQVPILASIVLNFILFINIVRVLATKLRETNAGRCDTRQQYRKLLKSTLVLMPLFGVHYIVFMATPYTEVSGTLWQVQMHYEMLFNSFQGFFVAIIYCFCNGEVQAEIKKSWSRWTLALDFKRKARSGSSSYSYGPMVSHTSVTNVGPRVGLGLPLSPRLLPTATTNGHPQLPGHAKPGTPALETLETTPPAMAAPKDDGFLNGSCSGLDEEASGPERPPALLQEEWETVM
UniProt Q9BV86: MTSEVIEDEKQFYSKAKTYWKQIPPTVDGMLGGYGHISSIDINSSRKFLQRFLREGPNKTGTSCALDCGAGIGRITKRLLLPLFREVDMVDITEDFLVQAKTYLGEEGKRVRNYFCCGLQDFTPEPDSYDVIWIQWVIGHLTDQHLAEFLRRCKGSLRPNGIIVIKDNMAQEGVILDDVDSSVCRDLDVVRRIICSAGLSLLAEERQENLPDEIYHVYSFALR
UniProt Q9UGL1: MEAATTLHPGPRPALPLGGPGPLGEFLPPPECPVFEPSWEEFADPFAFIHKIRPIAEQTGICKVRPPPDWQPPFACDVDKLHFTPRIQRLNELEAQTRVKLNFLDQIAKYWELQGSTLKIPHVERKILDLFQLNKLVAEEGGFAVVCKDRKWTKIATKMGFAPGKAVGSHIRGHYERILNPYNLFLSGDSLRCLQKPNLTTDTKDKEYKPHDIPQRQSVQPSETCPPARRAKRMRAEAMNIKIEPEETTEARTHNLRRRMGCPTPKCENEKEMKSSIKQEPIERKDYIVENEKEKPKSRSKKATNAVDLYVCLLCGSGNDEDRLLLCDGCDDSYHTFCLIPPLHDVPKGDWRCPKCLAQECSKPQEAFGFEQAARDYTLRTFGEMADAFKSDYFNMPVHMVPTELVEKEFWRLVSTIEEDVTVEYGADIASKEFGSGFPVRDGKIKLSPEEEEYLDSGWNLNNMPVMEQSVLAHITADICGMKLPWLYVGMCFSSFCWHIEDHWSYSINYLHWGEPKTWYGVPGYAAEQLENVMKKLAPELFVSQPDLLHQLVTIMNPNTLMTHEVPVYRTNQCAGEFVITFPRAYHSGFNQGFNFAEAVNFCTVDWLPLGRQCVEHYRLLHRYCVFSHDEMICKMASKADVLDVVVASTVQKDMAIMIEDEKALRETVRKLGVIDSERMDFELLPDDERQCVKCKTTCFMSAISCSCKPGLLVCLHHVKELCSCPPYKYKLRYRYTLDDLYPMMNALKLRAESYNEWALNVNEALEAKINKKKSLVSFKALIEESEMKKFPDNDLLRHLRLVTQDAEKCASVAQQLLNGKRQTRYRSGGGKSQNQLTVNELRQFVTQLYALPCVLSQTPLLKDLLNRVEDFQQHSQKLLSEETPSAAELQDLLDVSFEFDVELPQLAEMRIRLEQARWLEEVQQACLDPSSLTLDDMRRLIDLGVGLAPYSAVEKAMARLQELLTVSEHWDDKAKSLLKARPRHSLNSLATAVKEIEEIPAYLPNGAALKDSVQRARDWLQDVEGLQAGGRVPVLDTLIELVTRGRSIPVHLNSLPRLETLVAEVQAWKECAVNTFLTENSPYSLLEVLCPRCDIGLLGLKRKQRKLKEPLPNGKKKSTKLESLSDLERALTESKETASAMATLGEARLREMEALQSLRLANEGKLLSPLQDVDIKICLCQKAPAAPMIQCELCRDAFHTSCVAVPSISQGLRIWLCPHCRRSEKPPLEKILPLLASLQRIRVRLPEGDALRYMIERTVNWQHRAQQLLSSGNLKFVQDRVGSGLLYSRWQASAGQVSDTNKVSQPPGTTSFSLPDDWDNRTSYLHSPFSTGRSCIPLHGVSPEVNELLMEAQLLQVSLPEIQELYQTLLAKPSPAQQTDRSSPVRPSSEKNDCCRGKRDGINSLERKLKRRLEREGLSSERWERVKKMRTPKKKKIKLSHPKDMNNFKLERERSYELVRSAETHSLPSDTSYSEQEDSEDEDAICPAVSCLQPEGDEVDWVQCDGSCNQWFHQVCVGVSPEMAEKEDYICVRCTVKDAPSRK
UniProt Q9GZX7: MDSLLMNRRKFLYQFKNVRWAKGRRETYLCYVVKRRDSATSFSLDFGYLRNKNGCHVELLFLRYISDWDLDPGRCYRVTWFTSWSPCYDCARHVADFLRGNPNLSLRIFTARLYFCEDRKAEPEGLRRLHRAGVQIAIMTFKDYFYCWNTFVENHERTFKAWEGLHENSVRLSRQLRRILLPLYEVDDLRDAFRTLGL
UniProt Q99828: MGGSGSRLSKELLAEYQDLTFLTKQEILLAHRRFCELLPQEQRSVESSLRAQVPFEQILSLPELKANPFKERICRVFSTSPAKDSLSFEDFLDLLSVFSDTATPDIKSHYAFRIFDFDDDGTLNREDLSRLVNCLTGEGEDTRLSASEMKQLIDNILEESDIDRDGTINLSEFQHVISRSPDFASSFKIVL
UniProt C7C422: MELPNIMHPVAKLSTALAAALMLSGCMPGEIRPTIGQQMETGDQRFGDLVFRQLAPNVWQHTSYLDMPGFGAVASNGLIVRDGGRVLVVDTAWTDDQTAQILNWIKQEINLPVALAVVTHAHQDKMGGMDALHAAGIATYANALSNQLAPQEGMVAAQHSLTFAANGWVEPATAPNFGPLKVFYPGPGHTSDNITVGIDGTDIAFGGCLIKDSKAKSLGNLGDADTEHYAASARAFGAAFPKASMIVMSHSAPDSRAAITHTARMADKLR
UniProt P07203, whole entry, looked up: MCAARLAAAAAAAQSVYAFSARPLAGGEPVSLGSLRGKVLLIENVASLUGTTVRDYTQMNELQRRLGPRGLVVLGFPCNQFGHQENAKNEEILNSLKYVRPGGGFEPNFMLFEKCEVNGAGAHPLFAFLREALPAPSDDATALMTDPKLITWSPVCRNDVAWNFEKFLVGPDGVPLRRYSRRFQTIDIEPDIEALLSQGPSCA
UniProt P36969, whole entry, looked up: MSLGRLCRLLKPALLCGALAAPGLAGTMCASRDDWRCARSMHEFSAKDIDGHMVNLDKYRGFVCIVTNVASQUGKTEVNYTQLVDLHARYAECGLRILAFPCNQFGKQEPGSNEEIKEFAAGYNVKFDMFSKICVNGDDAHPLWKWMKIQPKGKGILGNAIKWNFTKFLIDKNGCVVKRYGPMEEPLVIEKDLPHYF

Assays:
[1] = target: Atrial natriuretic peptide receptor 2 (Homo sapiens) (UniProt P20594); experiment: Natriuretic polypeptide receptor (hNpr2) antagonism - Pilot subtype selectivity assay (AID 1347050; calls by dose curve; also: % is scaled to controls: 0 for no effect and ±100 for the full control effect); conditions: NPR2-expressing cells, cGMP antagonist-mode read-out; at 38.3 µM (top of the series)
In short: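 Antagonist mode: compounds (LOPAC1280, seven 1:5 dilutions) added 30 min before 1 nM hNppC stimulation of hNpr2-HEK293 cGMP-sensor cells; luminescence read before and 20 min after agonist at ambient temperature.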

[2] = target: T1, Tyrosine-protein phosphatase non-receptor type substrate 1 (Homo sapiens) + Leukocyte surface antigen CD47 (Homo sapiens) (UniProt P78324+Q08722); experiment: CD47-SIRPalpha protein protein interaction - LANCE assay qHTS validation (AID 1347057; active = well fitted curve in the direction sought with a large enough effect in the signal ratio, with a control signal flat, not every such curve was filed as active; the % refers to the signal ratio; also: 0% is about no effect); conditions: Recombinant CD47-His / biotin-SIRPalpha, TR-FRET ratio; at 38.3 µM (top of the series)
In short: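 Inhibition of soluble CD47/SIRPalpha ectodomain association by titrated compounds, measured as 665/615 nm time-resolved FRET ratio after sequential 30 min room-temperature incubations.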

[3] = target: T1, Tyrosine-protein phosphatase non-receptor type substrate 1 (Homo sapiens) + Leukocyte surface antigen CD47 (Homo sapiens); experiment: CD47-SIRPalpha protein protein interaction - HTRF assay qHTS validation (AID 1347058; active = well fitted curve in the direction sought with a large enough effect in the signal ratio, not every such curve was filed as active; the % refers to the signal ratio; also: 0% is about no effect); conditions: TR-FRET HTRF CD47-His / biotin-SIRPalpha binding, ratio 665/615; at 38.3 µM (top of the series)
In short: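 Soluble extracellular domains (6His-CD47, Avi-tag-biotinylated SIRPalpha) in PBS pH 7.4 with 0.05% IGEPAL CA-630. Compounds were preincubated 30 min at RT with CD47 and anti-His-Eu, then SIRPalpha and SAV-XL665 were added. TR-FRET 665/615 ratio.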

[4] = target: T1, Tyrosine-protein phosphatase non-receptor type substrate 1 (Homo sapiens) + Leukocyte surface antigen CD47 (Homo sapiens); experiment: CD47-SIRPalpha protein protein interaction - Alpha assay qHTS validation (AID 1347059); conditions: AlphaScreen CD47-His/biotin-SIRPalpha binding, LOPAC; at 38.3 µM (top of the series);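 also: bead proximity luminescence from CD47 binding SIRPalpha after compound preincubation with SIRPalpha; % is scaled to controls: 0 for no effect and ±100 for the full control effect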
In short: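 AlphaScreen signal between CD47-His (12.5 nM) and biotin-SIRPalpha (25 nM) soluble extracellular domains, bead-captured via Ni-NTA and streptavidin. Compounds, in 7-point titrations, met SIRPalpha 30 min before CD47; PBS pH 7.4 with 0.05% IGEPAL.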

[5] = target: Parathyroid hormone/parathyroid hormone-related peptide receptor (Homo sapiens) (UniProt Q03431); experiment: qHTS for PTHR1 Agonists: Optimization Screen against the NCGC LOPAC library (AID 1347079); conditions: HEK293 GP2 PTHR1 GloSensor cAMP luminescence, 1 h; at 57.1 µM (top of the series);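 also: GloSensor cAMP luminescence in HEK-293 GP2 cells expressing human PTHR1 with IBMX; 0% is about no effect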
In short: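 Signal increase flags agonism. GP2 cells, derived from HEK-293, express human PTHR1 and a GloSensor cAMP construct.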

[6] = target: N-terminal Xaa-Pro-Lys N-methyltransferase 1 (Homo sapiens) (UniProt Q9BV86); experiment: qHTS Assay for Inhibitors of N-terminal methyltransferase 1 (NTMT1): LOPAC validation of the NTMT1 SAHH-coupled ThioGlo3 Assay (AID 1347143); conditions: recombinant NTMT1, SAHH-coupled ThioGlo3 fluorescence; at 114 µM (top of the series);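 also: SAH from peptide methylation measured as thiol fluorescence via SAHH coupling and ThioGlo3; % is scaled to controls: 0 for no effect and ±100 for the full control effect; nearly all actives have a fitted effect of over 70% in size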
In short: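 NTMT1 125nM + cpds (various conc.), 1 min RT; add SAM 100uM/SAHH 10uM/ThioGlo3 15uM (addition mix). SAHH-coupled thiol detection, Ex340/Em450, t0 and 30 min RT; signal normalized to background. LOPAC 1280-cpd pilot.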

[7] = target: Lysine-specific demethylase 5B (Homo sapiens) (UniProt Q9UGL1); experiment: Optimization screen for KDM5B Histone Demethylases FDH coupled qHTS against the LOPAC library (AID 1347166); conditions: KDM5B demethylation, FDH-coupled NADH fluorescence; at 57.5 µM (top of the series); also: 0% is about no effect
In short: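 KDM5BDeltaAP (200nM final) in 50mM HEPES pH 7.5, 0.01% Tween-20 was preincubated with compound for 10 min at room temperature. A substrate mix of 12.5uM H3K4Me3, 25uM a-ketoglutarate, ascorbate, Fe2+, NAD+ and formaldehyde dehydrogenase was then added. NADH fluorescence (340/450 nm) was read initially and after 30 min.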

[8] = qHTS to identify inhibitors of the type 1 interferon - major histocompatibility complex class I in skeletal muscle: primary screen against the NCATS LOPAC collection (AID 1347405); conditions: iHSKM muscle cells, IFN-b-induced MHC-I HiBiT luminescence, 24 h; at 45.9 µM (top of the series);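 also: human myoblasts with HiBiT tag on endogenous HLA-B stimulated by IFN-beta; lytic HiBiT luminescence reporting HLA-B protein level; % is scaled to controls: 0 for no effect and ±100 for the full control effect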
In short: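 IFN-beta-stimulated (4 ng/ml) HLA-B HiBiT knock-in myoblasts, compound-treated 24 hrs up to 46 uM final; signal via LgBiT complementation and furimazine luminescence.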

[9] = qHTS for inhibitors of adenylyl cyclases using a fission yeast platform: a pilot screen against the NCATS LOPAC library (AID 1347410);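 also: plate controls were DMSO vehicle for no effect and DPI positive control for full effect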; conditions: S. pombe CHP2027, fbp1-GFP fluorescence, 18 h, yeast expressing mammalian AC9 and human GNAS; at 57.5 µM (top of the series)
In short: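 GFP from fbp1-GFP reporter, read by Acumen laser cytometry, indicates AC inhibition in fission yeast expressing AC9, GNAS and PDE4D2. Cells grown 18 h in the dark at 30C with compounds, final up to 57 uM.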

[10] = Validation qHTS assay for inhibitors of Activation Induced Cytidine Deaminase (AID): UDG Counterscreen signal (AID 1347427); conditions: biochemical UDG counterscreen, fluorescence signal; at 115 µM (top of the series); also: 0% is about no effect
In short: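 Fluorescence at 560 nm excitation, 665 nm emission reports UDG signal after 250 mM NaOH (2x) addition and 30 min. Enzymes (AID 1 uM, UDG 2 U/mL, at 4/3x) preincubated 10 min with compound, then 4 h with 4x 250 nM DJC20/DJC23 substrate at room temperature.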

[11] = target: Single-stranded DNA cytosine deaminase (Homo sapiens) (UniProt Q9GZX7); experiment: Validation qHTS assay for inhibitors of Activation Induced Cytidine Deaminase (AID): AID signal (AID 1347429); conditions: Recombinant AID, FRET ssDNA deamination with UDG, fluorescence; at 115 µM (top of the series); also: % is scaled to controls: 0 for no effect and ±100 for the full control effect
In short: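 Compounds (up to 114 uM final) are tested against AID plus UDG using DJC20/DJC23 FRET substrate. Reactions incubate 4 hr at room temperature, receive NaOH for 30 min, and are read at Ex 540/Em 590 nm.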

[12] = target: Calcium and integrin-binding protein 1 (Homo sapiens) (UniProt Q99828); experiment: Validation qHTS for Identification of Calcium Integrin Binding protein 1 (CIB1) Competitor (AID 1508618); conditions: CIB1-GST / FITC-alphaIIb peptide fluorescence polarization; at 114 µM (top of the series); also: % is scaled to controls: 0 for no effect and ±100 for the full control effect
In short: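 In this qHTS validation, the LOPAC set (up to 114 uM) was tested for blocking CIB1 binding to a fluorescein-tagged alphaIIb peptide, with FP detection at 480/540 nm.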

[13] = target: Metallo-beta-lactamase type 2 (Klebsiella pneumoniae) (UniProt C7C422); experiment: qHTS to identify inhibitors of the New Delhi Metallo-beta-lactamase (NDM): assay validation screen against the NCATS LOPAC Collection (AID 1794843); conditions: NDM-1 enzyme, nitrocefin hydrolysis, absorbance 485 nm; at 38.4 µM (top of the series)
In short: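 Nitrocefin hydrolysis (50 uM substrate stock) by NDM-1, 2 nM final, was followed by 485 nm absorbance after compound preincubation; buffer was 50 mM HEPES pH 7.0, 1 uM ZnSO4, 0.01% Tween20.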

[14] = target: Glutathione peroxidase 1 (Homo sapiens) (UniProt P07203); experiment: Primary qHTS Assay for Inhibitors of Recombinant Selenoprotein Glutathione Peroxidase 1 (GPX1) (AID 1845191); conditions: recombinant GPX1, GR-coupled NADPH fluorescence, 15 min; activity, negative = inhibition: at 48.8 µM (top of the series); also: % is scaled to controls: 0 for no effect and ±100 for the full control effect; nearly all actives have a fitted effect of over 65% in size
In short: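 NADPH consumption tracked by fluorescence at 340/450 nm between t=0 and t=15 min, room temperature. Final mix: 10 nM GPX1, 100 nM glutathione reductase, 1 mM GSH, 0.5 mM NADPH, 0.5 mM cumene hydroperoxide, 0.01% BSA; 30 min compound–enzyme preincubation.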

[15] = target: Phospholipid hydroperoxide glutathione peroxidase GPX4 (Homo sapiens) (UniProt P36969); experiment: Primary qHTS Assay for Inhibitors of Recombinant Selenoprotein Glutathione Peroxidase 4 (GPX4) (AID 1845192); conditions: recombinant GPX4, GR-coupled NADPH fluorescence, 15 min; activity change, negative = inhibition: at 50 µM (top of the series); also: % is scaled to controls: 0 for no effect and ±100 for the full control effect; nearly all actives have a fitted effect of over 65% in size
In short: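 NADPH consumption followed by fluorescence at 340/450 nm, t=0 and after 15 min at room temperature. Reaction started with cumene hydroperoxide (0.5 mM final) after 30 min compound–GPX4 preincubation; final 200 nM GPX4, 100 nM GR, 1 mM GSH, 0.5 mM NADPH.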

CN(C(=O)Cc1ccc(Cl)c(Cl)c1)[C@@H]1CCCC[C@@H]1N1CCCC1
inactive: activity change, negative = inhibition [1] -20.5% | activity change, negative = inhibition [2] 0.847% | activity change, negative = inhibition [3] -0.565% | activity change, negative = inhibition [4] 3.4% | activation [5] -26.7% | activity change, negative = inhibition [6] -30.7% | activity, negative = inhibition [7] -15.4% | activity change, negative = inhibition [8] -3.5% | activity, positive = inhibition (GFP gain) [9] -0.438% | activity, negative = inhibition [10] 6.27% | activity change, negative = inhibition [11] 14.8% | activity change, negative = inhibition [12] 1.63% | activity change, negative = inhibition [13] 9.35% | activity, negative = inhibition [14] -29.5% | activity change, negative = inhibition [15] -18.4%
